This test deals with T1, Adenosine receptor A2b (Homo sapiens) (UniProt P29275).
T1 sequence (whole entry): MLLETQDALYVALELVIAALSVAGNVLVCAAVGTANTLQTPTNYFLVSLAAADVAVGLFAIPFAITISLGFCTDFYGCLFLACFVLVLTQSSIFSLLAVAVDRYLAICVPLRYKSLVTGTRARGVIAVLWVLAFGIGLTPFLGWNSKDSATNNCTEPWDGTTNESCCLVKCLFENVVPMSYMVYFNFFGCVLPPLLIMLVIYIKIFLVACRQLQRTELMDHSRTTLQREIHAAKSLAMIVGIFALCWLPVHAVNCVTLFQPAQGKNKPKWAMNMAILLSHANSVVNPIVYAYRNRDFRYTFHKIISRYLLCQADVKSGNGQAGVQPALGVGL
The test is described as follows: Agonist activity human adenosine A2B receptor expressed in CHO cells assessed as stimulation of adenylate cyclase relative to NECA. The test is classed as functional, cell-based. In short, it runs like this: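 Stably transfected CHO cells; cAMP accumulation by enzyme immunoassay kit. Relative potency computed as pEC50(compound) minus pEC50(NECA) determined in the same publication.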

Our source for the Activity values is ChEMBL document CHEMBL1145544, “Probing distal regions of the A2B adenosine receptor by quantitative structure-activity relationship modeling of known and novel agonists” (J Med Chem, 2008).

For `OC[C@H]1O[C@@H](n2cnc3c(NC4CCCCC4)ncnc32)[C@H](O)[C@@H]1O`, the Activity came out at 1.82. The value for `C[C@H](Cc1ccccc1)Nc1ncnc2c1ncn2[C@@H]1O[C@H](CO)[C@@H](O)[C@H]1O` was -1.08.
